In published antibiotic growth screens (doi:10.1038/s41589-023-01349-8) one finds relative growth data, which are given here for 56 compounds.

The list shows a part of the results.

This test concerns A. baumannii ATCC 17978. Kind of test: relative growth (fraction of control); higher = less inhibition. Conditions: 50 µM.
Turning to `COc1ccc2cc([C@H](C)C(=O)O)ccc2c1`, the relative growth came out at 1.02. `O=C(O)[C@H]1CCCNC1` returned a relative growth of 0.984. The figure for `CC(C)NC(=O)N(C)C[C@@H]1Oc2cc(-c3ccccc3F)ccc2S(=O)(=O)N([C@@H](C)CO)C[C@H]1C` is 0.909; for `CN(C)CCCNC(=O)C[C@@H]1C=C[C@@H](NS(=O)(=O)c2ccccc2)[C@@H](CO)O1` it is 1.02.

In turn, `CN(C)CCCNC(=O)C[C@@H]1C=C[C@@H](NC(=O)Cc2cccnc2)[C@H](CO)O1` yielded a relative growth of 0.95. Regarding `O=C(O)c1ccc2ccccc2c1`, the relative growth was determined as 0.931.

On to `Nc1cc(N2CCCCC2)nc(N)[n+]1[O-]`, for which the relative growth came to 1.07. The figure for `NCCn1nc([C@H]2CCN(C(=O)c3csc4c3CCCC4)C2)c2nccnc21` is 0.939; for `O=C(/C=C/c1ccccc1)c1ccc(O[C@@H]2O[C@H](CO)[C@@H](O)[C@H](O)[C@H]2O)cc1O` it is 0.992; for `COc1ccc(S(=O)(=O)N(C)C[C@H]2Oc3c(NC(=O)Nc4cccc5ccccc45)cccc3C(=O)N([C@@H](C)CO)C[C@@H]2C)cc1` it is 0.932.

In turn, `CN(C)C(=O)C[C@@H]1CC[C@@H](NC(=O)C2CC2)[C@@H](CO)O1` had a relative growth of 1.06. The figure for `O=C(O)c1cc(=O)[nH]c(=O)[nH]1` is 0.877; for `O.OC[C@@H](O)C(O[C@@H]1O[C@H](CO)[C@H](O)[C@H](O)[C@H]1O)[C@H](O)[C@@H](O)CO` (stereo partly specified) it is 1.04. On to `CN(C)[C@@H](CCOc1cccc2ccccc12)c1ccccc1.Cl`, for which the relative growth came to 0.513. `CC[C@@H](C)c1ccc(NC(=O)c2ccc(N(CC)CC)cc2)cc1` had a relative growth of 1.21. Compound `C=CCOC(=O)[C@H]1[C@@H]2C(=O)O[C@@H](c3ccccc3)[C@@H](c3ccccc3)N2[C@@H](c2ccc(OCCOC(=O)[C@H]3C[C@H]4C(=O)N[C@@H](CCCCNC(C)=O)C(=O)N4[C@H]3c3ccc(O)cc3)cc2)[C@]12C(=O)Nc1ccccc12` registered a relative growth of 0.879. The result for `O=S(=O)(c1ccc(-n2cnnn2)cc1)N1CCNCC1` reads 1.11.

The compound `CC(=O)NCCCCCC(=O)O` gave a relative growth of 0.968. The figure for `CN(C)c1ncnc2c1ncn2[C@H]1O[C@@H](CO)[C@@H](N)[C@@H]1O` is 0.99; for `COCC#Cc1ccc2c(c1)O[C@@H](CN(C)C(=O)COC)[C@H](C)CN([C@@H](C)CO)S2(=O)=O` it is 0.905; for `CCNC(=O)C[C@@H]1C=C[C@H](NC(=O)C2CCOCC2)[C@@H](CO)O1` it is 0.89. The result for `CC(C)=CCOc1cc(C)cc2oc(=O)cc(-c3ccccc3)c12` reads 1.11. The figure for `COc1ccc(NC(=O)N2C[C@@H](O)COC[C@H]3O[C@H](CC(=O)NC4Cc5ccccc5C4)CC[C@@H]32)cc1` is 0.941.

As to `O=C(C[C@@H]1C[C@@H]2c3cc(NC(=O)Cc4ccncc4)ccc3O[C@@H]2[C@H](CO)O1)NCc1ccc2c(c1)OCO2`, the relative growth was determined as 0.965. On to `CS(=O)(=O)c1ccc([C@H](O)[C@H](CF)NC(=O)C(Cl)Cl)cc1`, for which the relative growth turned out to be 0.776.

For `COc1ccccc1C#Cc1ccc2c(c1)O[C@H](CN(C)Cc1cncnc1)[C@@H](C)CN([C@H](C)CO)S2(=O)=O`, the relative growth turned out to be 0.701. The result for `COc1ccc([Si](C)(C)[C@@H]2[C@@H](CC(=O)N3CCC[C@H]3CO)O[C@]3(C(=O)N(Cc4cccc(N5C(=O)c6cccc7cccc5c67)c4)c4ccccc43)[C@H]2C)cc1` reads 1; that for `COc1ccc([C@@H](C)C(=O)c2ccc(O)cc2O)cc1`, 0.94. The figure for `COc1ccc(S(=O)(=O)N[C@H]2C=C[C@H](CC(=O)N3CCC(Cc4ccccc4)CC3)O[C@H]2CO)cc1` is 0.758. The figure for `CCNC(=O)C[C@H]1C=C[C@@H](NC(=O)C2CCOCC2)[C@H](CO)O1` is 0.827; for `O=C(NCc1nc2ccccc2[nH]1)C1=C[C@@H](c2ccc(Br)cc2)C[C@@H](OCc2ccc(CO)cc2)O1` it is 0.942. `CC(=O)c1ccc[nH]1` came in with a relative growth of 0.955. As for `O=S(=O)([O-])CCSSCCS(=O)(=O)[O-].[Na+].[Na+]`, the relative growth came out at 1.04.

With `CC(C)(C)CC(C)(C)c1cc(Cc2cc(C(C)(C)CC(C)(C)C)cc(-n3nc4ccccc4n3)c2O)c(O)c(-n2nc3ccccc3n2)c1`, the relative growth worked out at 0.87.

`COc1cc2nc(N(C)CCCNC(=O)C3CCCO3)nc(N)c2cc1OC.Cl` (stereo unspecified) returned a relative growth of 0.871. Compound `NC(=O)c1cnccn1` returned a relative growth of 1.09. The result for `O=C(C[C@H]1CC[C@@H](NC(=O)CN2CCOCC2)[C@H](CO)O1)NC1CCC1` reads 0.964. The result for `COc1cccc(S(=O)(=O)N(C)C[C@@H]2Oc3cc(C4=CCCC4)ccc3S(=O)(=O)N([C@H](C)CO)C[C@@H]2C)c1` reads 1.08; that for `CN(C)c1cnccn1.O=S(=O)(O)O`, 1.02; that for `Cc1nc2ccccn2c(=O)c1CCN1CCC(C(=O)c2ccc(F)cc2)CC1`, 0.947. Compound `CSc1nc2cc(Cl)c(Oc3cccc(Cl)c3Cl)cc2[nH]1` displayed a relative growth of 0.894. The result for `O=C(CCNNC(=O)c1ccncc1)NCc1ccccc1` reads 1.07; that for `COCC(=O)N1C[C@H](C)[C@H](OC)CN(C)C(=O)c2ccc(NC(=O)c3cc(C)on3)cc2OC[C@@H]1C`, 1.02. In the case of `C[C@H]1CN([C@@H](C)CO)S(=O)(=O)c2ccc(C3=CCCCC3)cc2O[C@@H]1CN(C)C(=O)C1CCOCC1`, the relative growth came out at 0.94. Compound `O=C(C[C@@H]1CC[C@@H](NC(=O)CN2CCOCC2)[C@H](CO)O1)NC1CCC1` gave a relative growth of 0.961. The result for `O=C(CN1CCOCC1)N[C@H]1CC[C@@H](CCn2cc(C3CC3)nn2)O[C@@H]1CO` reads 1.04.

As for `OCCN1CCN(c2ncnc3c2ncn3[C@H]2CN(Cc3cccc(C(F)(F)F)c3)C[C@@H](CO)O2)CC1`, the relative growth is 0.918. The figure for `CN(C)CCCNC(=O)C[C@H]1C=C[C@@H](NC(=O)Cc2cccnc2)[C@H](CO)O1` is 0.991; for `C/C=C/c1ccc(OC)cc1` it is 1.18. Take `CN(C)CCCCNC(=O)[C@H]1C[C@H]2C(=O)N[C@@H](CCCC[N+](C)(C)C)C(=O)N2[C@H]1c1ccc(O)cc1`: the relative growth was determined as 1.

Compound `COc1ccccc1C#Cc1ccc2c(c1)O[C@H](CN(C)Cc1cccnc1)[C@@H](C)CN([C@H](C)CO)S2(=O)=O` returned a relative growth of 1.02.

On to `O[C@H]1[C@H](O)[C@@H](O)[C@H](O)[C@@H](O)[C@H]1O`, for which the relative growth was found to be 0.98.

With `CCN1CCN(C(=O)NC(C(=O)NC2C(=O)N3C(C(=O)O)=C(CSc4nnnn4C)CSC23)c2ccc(O)cc2)C(=O)C1=O` (stereo unspecified), the relative growth stood at 0.164. Compound `N=C(N)NCCCCN.O=S(=O)(O)O` came in with a relative growth of 1.01. The figure for `Cc1cc(C)n(C(N)=S)n1` is 0.965; for `COc1ccccc1S(=O)(=O)N[C@@H]1C=C[C@H](CC(=O)N2CCN(C)CC2)O[C@@H]1CO` it is 1.24.
